In PubChem BioAssay AID1346985 (Tox21, 2019) one finds activation data, which are given here for seven compounds.

This is a selection; strong and weak results do not stand in their true shares. Records with an inconclusive call do not appear. Activity calls are given as the source filed them. The call rests on the fitted dose curve; in most records, active means well fitted activation curve with a large enough effect in the repeat runs; inconclusive means weak or mixed curves; inactive means flat fitted curve, though single readings scatter.
On the % scale 0 is the no-effect control and ±100 the full control effect.

The assay deals with Nuclear receptor subfamily 1 group I member 2 (Homo sapiens) (UniProt O75469). The assay is described as follows: Human pregnane X receptor (PXR) activation by small molecules, qHTS assay. Further: nearly all actives have a fitted effect of over 40% in size. The settings on record: DPX-2 HepG2 CYP3A4-luciferase, 24 h; at 38.3 µM (top of the series) unless noted. The source says:
National Center for Advancing Translational Sciences [NCATS]
NIH Chemical Genomics Center [NCGC]
U.S. Environmental Protection Agency [EPA]
National Institutes of Environmental Health Sciences [NIEHS]
National Toxicology Program [NTP]
The Pregnane X receptor (PXR), a ligand activated nuclear receptor plays a critical role in the regulation of genes involved in drug metabolism and transporters. Activation of PXR may be involved in the unwanted adverse drug-drug interactions. […] Therefore, identification of compounds with the potential for PXR activation can be of importance in improving the efficacy of drugs with less toxicity and avoiding drug-drug interactions.
DPX-2 (Puracyp, Inc.) cell lines, used for screening against human PXR activation has HepG2 cells co-transfected with a PXR response element and a luciferase construct containing CYP3A4 promoter. Increase in luciferase activity can be used to identify the compounds that activate the PXR pathway.
DPX-2 cells were dispensed at 2,000 cells per well in 5uL of assay medium into white, solid-bottom 1536-well plates using a Multidrop Combi dispenser (Thermo Scientific). The assay plates were incubated at 37C for 5hr before transferring 23nL of test compounds dissolved in DMSO and positive control via Pintool station (Wako). The assay plates were incubated at 37C for 24hr. Then 5ul One-Glo assay reagent (Promega) was added to each plate by a Flying Reagent Dispenser (FRD, Aurora Discovery) and following 30 min incubation at room temperature, luciferase activity was quantified on a ViewLux plate reader (Perkin Elmer).
On the technique in general: In qHTS, concentration-response curves come from the screen itself.
As to `C/C1=C2N=C(/C=C3N=C(/C(C)=C4\[N-][C@@](C)([C@@H]5N=C1[C@](C)(CCC(=O)NC[C@@H](C)OP(=O)([O-])O[C@H]1[C@@H](O)[C@@H](n6cnc7cc(C)c(C)cc76)O[C@@H]1CO)[C@H]5CC(N)=O)[C@@](C)(CC(N)=O)[C@@H]4CCC(N)=O)[C@@](C)(CC(N)=O)[C@@H]\3CCC(N)=O)C(C)(C)[C@@H]/2CCC(N)=O.[C-]#N.[Co+3]`, the activation was inactive: -2.8% [at 17.1 µM]. For `CC(C)OP(=O)(F)OC(C)C`, the activation is inactive: 8.59%. In the case of `OCCSCCO`, the activation was inactive: -9.81%. For the compound `CN(C)CCS`, the activation is inactive: 2.56%. With `O=[N+]([O-])[O-].[NH4+]` the figure was inactive: -2.89%; with `O=[N+]([O-])c1cccc([N+](=O)[O-])c1`, inactive: 7.83%.

As for `O=[N+]([O-])OCC(CO[N+](=O)[O-])(CO[N+](=O)[O-])CO[N+](=O)[O-]`, the activation was inactive: 6.96%.
